{"source": "paper PMC8807399", "about": "“Synthesis, Characterization, and in vivo Evaluation of a Novel Potent Autotaxin-Inhibitor” (Frontiers in Pharmacology, 2022)", "molecular_target": "plasma ATX (Rattus norvegicus, UniProt Q64610)", "conditions": "single dose 10 mg/kg po", "data": [{"smiles": "O=C(OCc1ccc(OC(F)(F)F)cc1)N1C[C@@H]2CN(C(=O)c3ccc4[nH]nnc4c3)C[C@H]2C1", "note": "[Compound 13, (3aS,6aS)-5-(1H-Benzotriazole-5-carbonyl)-hexahydro-pyrrolo[3,4-c]pyrrole-2-carboxylic acid 4-trifluoromethoxy-benzyl ester]", "values": [{"measurement": "Inhibition of LPA formation 24 h post-dose", "setting": "24 h post-dose", "value": "no inhibition of LPA formation was visible"}, {"measurement": "Duration of significant inhibition of formation of all four LPA species", "setting": "plasma incubated at 37°C", "value": "≥ 6", "unit": "h"}]}]}
